The list shows a part of the results, in another mix than the full data. Activity calls are given as the source filed them.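 How the source made its calls: active means inhibition of 50% or more, scaled per plate between neutral and stimulator controls; inactive means the rest.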

The assay in a line: mitochondrial permeability transition pore inhibitors, primary screen, biochemical, isolated mouse mitochondria, absorbance (AID 602449).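 Further: 0% = DMSO wells given calcium and 100% = 1 mM EGTA wells.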 The note with it: Ca2+ swelling absorbance, 30 min, at 10 µM, active compounds read high.
As usually defined, the inhibition is the relative decrease from the control value, in per cent. As for `ClCCSc1nnc(-c2cccnc2)o1`, the inhibition was inactive: 0.4%.
For the compound `CC(C)c1ccc(OP(=O)(Nc2ccccn2)Oc2ccccc2F)cc1` (stereo not drawn), the inhibition was inactive: 14.9%.
`COC(=O)C1(C)COP(=O)(N2CCCCCC2)OC1` (stereo not drawn): the inhibition is inactive: -0.5%.
As for `CCN(CC)C(=S)SC(NC=O)C(Cl)(Cl)Cl` (stereo not drawn), the figure is inactive: -0.8%; as for `O=C(OC1CN2CCC1CC2)c1cccc2[nH]cnc12` (stereo not drawn), inactive: -0.8%.
As for `CC(C)NC(=O)NP(=O)(Oc1ccccc1)Oc1ccccc1`, the figure is inactive: -0.4%; as for `O=[N+]([O-])c1cc([N+](=O)[O-])c(-c2ccn[nH]2)s1`, inactive: 4.8%; as for `CC(C)NC[C@@H](O)COc1ccc(CC(N)=O)cc1`, inactive: -0.7%.
The value for `O=[As](O)(c1ccc(O)cc1)c1ccccc1O` was inactive: 1.5%; that for `C[As](=O)(O)c1cccc(C(=O)O)c1` was inactive: -0.4%.
Consider `COc1cc(C(=O)NCC2(N3CCOCC3)CCCCC2)ccc1OCC(C)C`, for which the inhibition was inactive: 1%.
The value for `O=[N+]([O-])c1ccc(-c2cc([N+](=O)[O-])c(O)c([N+](=O)[O-])c2)cc1` was active: 78.1%.
As for `[N-]=[N+]=NC1CCCCC1NC(=O)c1cc([N+](=O)[O-])cc([N+](=O)[O-])c1` (stereo not drawn), the figure is inactive: -2%; as for `Cc1ccc(OP(=O)(Nc2ccc([N+](=O)[O-])cn2)Oc2ccc(C)cc2)cc1`, inactive: 3.1%; as for `CC(Cc1ccc(O)cc1)NCC(O)c1cc(O)cc(O)c1` (stereo not drawn), inactive: -2%.
Take `Cc1ccc2nc3c(c(C)c2c1)CC(C(Cl)Cl)S3` (stereo not drawn): the inhibition was inactive: -0.2%.
Take `NC(=O)Nc1ccc([As](=O)(O)O)cc1`: the inhibition is inactive: -2.3%.
Turning to `N#CCCN(C(=O)COC(=O)C(O)(c1ccccc1)c1ccccc1)c1ccc(F)cc1`, the inhibition is inactive: -0.5%.
As for `CCOP1(=S)c2c(C)nn(CCC#N)c2N=C(c2ccc(F)cc2)N1C` (stereo not drawn), the figure is inactive: -0.3%.
The value for `CN(C(=O)Cc1ccccc1)[C@@H]1CC[C@]2(CCCO2)C[C@H]1N1CCCC1` was inactive: -1%; that for `CN(C)C(=O)c1cc([N+](=O)[O-])cc2c1-c1c(cc([N+](=O)[O-])cc1[N+](=O)[O-])C2=O` was inactive: 3.9%.
The value for `O=[N+]([O-])c1ccc2c(c1)nnn2O` was inactive: 0.4%; that for `CN(C(=O)Cc1ccc(Cl)c(Cl)c1)[C@H]1CC[C@@]2(CCCO2)C[C@@H]1N1CCCC1` was inactive: -3.5%.
Take `CCn1cc(C(=O)O)c(=O)c2cc(F)c(N3CCNCC3)nc21`: the inhibition is inactive: -1.1%.
Regarding `CCOP1(=S)c2c(C)nn(CCC#N)c2N=C(c2ccccc2F)N1C` (stereo not drawn), the inhibition is inactive: 0.9%.
As for `O=P(Nc1nccs1)(c1ccccc1)c1nc2ccccc2s1` (stereo not drawn), the figure is inactive: -3.8%; as for `O=P(Nc1nccs1)(Oc1ccccc1)Oc1ccccc1`, inactive: -1.1%; as for `CS(=O)(=O)c1cc([N+](=O)[O-])c2no[n+]([O-])c2c1`, inactive: 26.1%.
Turning to `Nc1ccccc1[As](=O)(O)c1ccccc1`, the inhibition is inactive: -0.3%.
The value for `O=C(O)COc1ccc([As](=O)(O)O)cc1[N+](=O)[O-]` was inactive: 0.3%.
With `Cc1ccc(NCCc2c([N+](=O)[O-])cc([N+](=O)[O-])cc2[N+](=O)[O-])cc1`, the inhibition was inactive: 22.7%.
As for `Nc1cccc2c([As](=O)(O)O)cccc12`, the figure is inactive: 0.2%.
The value for `CCCOP(=S)(Nc1nc(N)cc(=O)[nH]1)OCCC` was inactive: -0.6%.
As for `COc1cc(C2NCCC3(OCCO3)C2(C)C)cc(OC)c1OC` (stereo not drawn), the figure is inactive: 21%; as for `CCOP(=O)(Nc1cccc2ccccc12)OCC`, inactive: 2.2%; as for `O=C(OC1CN2CCC1CC2)c1ccc(Cl)cc1` (stereo not drawn), inactive: 0.6%.
As to `COc1cc(C(=O)NCC2(N3CCOCC3)CCCCC2)cc(Cl)c1OC(C)C`, the inhibition is inactive: 0.4%.
The value for `O=[As](O)(O)c1cccnc1` was inactive: 0.9%.
As for `CS(=O)(=O)c1ccc(Cl)c(NC(=O)COC(=O)C(O)(c2ccccc2)c2ccccc2)c1`, the figure is inactive: 0.2%; as for `O=[As](O)(c1cccc(O)c1)c1cccc(O)c1`, inactive: 1.1%; as for `Cc1cccc(OCC(=O)OC2CN3CCC2CC3)c1` (stereo not drawn), inactive: -1.5%.
The value for `COc1ccccc1CNC(=O)COC(=O)C(O)(c1ccccc1)c1ccccc1` was inactive: -0.1%; that for `CC(C)/C=N\N=C(\N)N[N+](=O)[O-]` was inactive: 3%.
On to `CN(C(=O)Cc1ccc(Cl)c(Cl)c1)[C@@H]1CCCC[C@H]1N1CCCC1`, for which the inhibition was inactive: 27.9%.
For `CC1(CBr)Cn2c(nc3ccccc3c2=O)S1` (stereo not drawn), the inhibition was inactive: -2.1%.
In the case of `O=P1(Nc2ccccn2)COc2ccccc2OC1`, the inhibition was inactive: -1.4%.
Turning to `CCC1=CC2Cc3nc4ccc(Cl)cc4c(N)c3C(C1)C2` (stereo not drawn), the inhibition was active: 83.2%.
For `CCOP(=O)(NC(=NC(C)c1ccccc1)NC(C)c1ccccc1)OCC` (stereo not drawn), the inhibition is inactive: -1.6%.
For the compound `CN(CCCl)Cc1cc(Cl)c(NC2=NCCN2)c(Cl)c1`, the inhibition was inactive: -4.1%.
As for `CCOP(=O)(Nc1ccc(C)cn1)OCC`, the figure is inactive: 0.3%; as for `O=P1(N(CCCl)CCCl)NCCC(C(F)(F)F)O1` (stereo not drawn), inactive: 0.8%; as for `Clc1n[nH]nc1-c1nn[nH][15n]1`, inactive: -1.6%.
The value for `CC(C)(C)C(=O)NC(Sc1ncccn1)C(Cl)(Cl)Cl` (stereo not drawn) was inactive: -0.6%.
Regarding `Cc1ccc(S(=O)(=O)N(CCCN)CCCc2c(C)nc(N)[nH]c2=O)cc1`, the inhibition was inactive: -2.2%.
Take `O=P1(Nc2ncccn2)COc2ccccc2OC1`: the inhibition is inactive: 0.7%.
For `Nc1cccc([As](=O)(O)c2ccccc2)c1`, the inhibition is inactive: -0.2%.
The value for `O=P1(Nc2ccc(Br)cn2)COc2ccccc2OC1` was inactive: 1.8%; that for `NS(=O)(=O)c1cccc(NC(=O)COC(=O)C(O)(c2ccccc2)c2ccccc2)c1` was inactive: -0.4%; that for `Cc1ccc(OCC(=O)OC2CN3CCC2CC3)cc1` (stereo not drawn) was inactive: 0.5%.
Consider `O=[As](O)(c1cccs1)c1cccs1`, for which the inhibition was inactive: -0.7%.
The value for `Cc1nn(-c2ccccc2)c2c1P(=O)(N1CCOCC1)N(C)C(c1ccccc1)=N2` (stereo not drawn) was inactive: -0.6%; that for `CC1CCC(C(C)C)C(OP(=O)(Nc2ccccn2)c2ccccc2)C1` (stereo not drawn) was inactive: -3.4%; that for `Cc1ccc(C(=O)OC2CN3CCC2CC3)cc1` (stereo not drawn) was inactive: -0.3%.
As for `CCOc1ccccc1O[C@H](c1ccccc1)[C@H]1CNCCO1`, the figure is inactive: 3.9%; as for `CN(C)C1(CNC(=O)c2ccc(S(C)(=O)=O)cc2)CCCCC1`, inactive: 0.6%; as for `O=C(/C=C/c1ccccc1)OC1CN2CCC1CC2` (stereo not drawn), inactive: 1.7%.
As for `CCCC1OP(=O)(Nc2ccccc2)OCC1CC` (stereo not drawn), the figure is inactive: 1.7%.
`O=[As](O)(c1ccccc1)c1ccc(O)cc1`: the inhibition is inactive: 0%.
In the case of `O=[N+]([O-])c1ccc(O)c(/C=N/Nc2ccc([N+](=O)[O-])cc2[N+](=O)[O-])c1`, the inhibition is active: 95%.
The value for `CC(=O)NC(SC(=S)N(C)C)C(Cl)(Cl)Cl` (stereo not drawn) was inactive: 0.1%.
On to `O=[N+]([O-])c1ncn(CCn2cnc([N+](=O)[O-])n2)n1`, for which the inhibition is inactive: 0.6%.
The value for `Cn1c(=O)c2[nH]cnc2n(C)c1=O` was inactive: 2.1%.
As for `O=C(OC1CN2CCC1CC2)c1cccc(Cl)c1` (stereo not drawn), the figure is inactive: -1.2%; as for `Nc1ccc([As](=O)(O)c2ccc([N+](=O)[O-])cc2)cc1`, inactive: 1%.
The value for `C(Cc1nn[nH]n1)Cc1nn[nH]n1` was inactive: -0.7%; that for `O=P(Nc1ccccn1)(c1ccc(Br)cc1)c1ccc(Br)cc1` was inactive: -0.8%; that for `CN(C)C1(CNC(=O)c2ccc(Cl)c(S(N)(=O)=O)c2)CCCCC1` was inactive: -0.3%.
Turning to `Nc1ccc(CCCCOc2ccccc2)cc1`, the inhibition was inactive: -0.5%.
As for `COc1ccc(N)c([N+](=O)[O-])c1[N+](=O)[O-]`, the figure is inactive: 0.6%.
The value for `CC(C)NC[C@H](O)COc1ccc(CC(N)=O)cc1` was inactive: -1.6%; that for `O=P(Nc1nc2ccccc2s1)(c1ccccc1)c1ccccc1` was inactive: 1.8%.
As for `C[C@H]1OP(=O)(Oc2ccccc2)[C@H](O)[C@H](O)[C@H]1N=[N+]=[N-]` (stereo partly drawn), the figure is inactive: -0.2%; as for `CC(C)C(=O)NC(Sc1ccccc1)C(Cl)(Cl)Cl` (stereo not drawn), inactive: 9.4%.
For the compound `O=P(Nc1nccs1)(c1ccccc1)c1ccccc1`, the inhibition is inactive: 0.2%.
In the case of `c1nnnn1CCn1cnnn1`, the inhibition is inactive: -0.2%.
The value for `Cc1ccccc1CN(C)C(=O)COC(=O)C(O)(c1ccccc1)c1ccccc1` was inactive: -0.4%; that for `C[C@@H]1C=CCP(=O)(Oc2ccccc2)O1` (stereo partly drawn) was inactive: -1.6%; that for `C[C@H]1OP(=O)(Oc2ccccc2)C[C@@H]2O[C@@H]21` (stereo partly drawn) was inactive: -0.9%.
The value for `N#C/C(=C\c1ccc(N(CCBr)CCBr)cc1)C(N)=O` was inactive: -0.7%; that for `CC(=O)c1ccc(N2CC2c2ccncc2)cc1` (stereo not drawn) was inactive: -0.2%.
As for `COC(=O)C1(C)COP(=O)(NCc2ccccc2)OC1` (stereo not drawn), the figure is inactive: 1.6%.
As for `CC(=O)Nc1ccc([As](=O)(O)O)c(O)c1`, the inhibition was inactive: 1%.
Regarding `CC(=O)Nc1ccc(Oc2c([N+](=O)[O-])cc([N+](=O)[O-])cc2[N+](=O)[O-])cc1`, the inhibition is inactive: 8.6%.
As for `O=P1(Nc2nc3ccc(Cl)cc3s2)COc2ccccc2O1` (stereo not drawn), the figure is inactive: 0.5%.
On to `CCOc1ccc(C2=NCC(CBr)S2)cc1` (stereo not drawn), for which the inhibition is inactive: 0.5%.
For `CC(C)(C)C(=O)NC(Sc1ccccc1)C(Cl)(Cl)Cl` (stereo not drawn), the inhibition was inactive: -0.1%.
The value for `CCc1cc(O)c([N+](=O)[O-])c(C)c1[N+](=O)[O-]` was inactive: 3.5%; that for `O=C(OC1CN2CCC1CC2)c1ccccc1` (stereo not drawn) was inactive: -1.6%; that for `CCC(=O)N1C2C3N(C(=O)CC)C1C1N(C(=O)CC)C(C(N1C(=O)CC)N3C(=O)CC)N2C(=O)CC` was inactive: -3.1%.
The value for `COC(=O)c1cc2c(s1)N=C(c1ccccc1)N(C)P2(=O)N1CCOCC1` (stereo not drawn) was inactive: -1.9%.
As for `CC(=O)NC(SC(=S)N(CC(C)C)CC(C)C)C(Cl)(Cl)Cl` (stereo not drawn), the figure is inactive: 3%.
Consider `Cc1ccc(OP(=O)(Nc2ccccn2)Oc2ccc(C)cc2)cc1`, for which the inhibition was inactive: 1.4%.
As for `Cc1ccccc1OP(=O)(Nc1ccccn1)Oc1ccccc1C`, the figure is inactive: 3.5%.

The values above are taken from PubChem BioAssay AID602449 (Sanford-Burnham Center for Chemical Genomics, 2012).
